Tests used:
[1] = target: Kappa-type opioid receptor (Cavia porcellus) (UniProt P41144); experiment: Binding affinity against opioid receptor kappa 1 using [3H]U-69593 as a radioligand
[2] = target: Kappa-type opioid receptor (Cavia porcellus) (UniProt P41144); experiment: Binding affinity against opioid receptor kappa 1 using with [3H]bremazocine as radioligand

Protein sequences, listed by entry. Tags and fused reporters are not part of them.
UniProt P41144, whole entry: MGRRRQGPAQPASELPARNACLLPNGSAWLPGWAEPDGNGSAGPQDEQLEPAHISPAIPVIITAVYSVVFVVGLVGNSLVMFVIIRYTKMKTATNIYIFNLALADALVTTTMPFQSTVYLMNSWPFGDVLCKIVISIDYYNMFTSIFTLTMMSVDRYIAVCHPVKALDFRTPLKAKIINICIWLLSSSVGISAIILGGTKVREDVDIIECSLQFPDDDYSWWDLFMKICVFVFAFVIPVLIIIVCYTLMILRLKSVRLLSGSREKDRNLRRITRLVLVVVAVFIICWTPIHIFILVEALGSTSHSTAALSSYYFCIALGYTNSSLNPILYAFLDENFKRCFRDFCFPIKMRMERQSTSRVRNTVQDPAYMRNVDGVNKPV

Row | SMILES | Control [1] | Control [2]
1 | CN(C(=O)Cc1c(Cl)cccc1Cl)[C@@H]1CCCC[C@@H]1N1CCCC1 | 18.9% | 104%
2 | CN(C(=O)OCc1ccccc1)[C@@H]1CCCC[C@@H]1N1CCCC1 | 95% | 98.3%
3 | CN(C(=O)Cc1ccccc1[N+](=O)[O-])[C@@H]1CCCC[C@@H]1N1CCCC1 | 78.3% | 
4 | CN(C(=O)Cc1ccc(Cl)cc1Cl)[C@@H]1CCCC[C@@H]1N1CCCC1 | 27.2% | 93%
5 | CN(C(=O)Cc1ccc([N+](=O)[O-])cc1)[C@@H]1CCCC[C@@H]1N1CCCC1 | 51.6% | 
6 | CN(C(=O)Cc1cccnc1)[C@H]1CCCC[C@H]1N1CCCC1 | 91.8% | 93.3%
7 | CN(C(=O)Cc1cccc(Cl)c1)[C@@H]1CCCC[C@@H]1N1CCCC1 | 42.7% | 
8 | CN(C(=O)Cc1ccc(Br)cc1)[C@@H]1CCCC[C@@H]1N1CCCC1 | 32.8% | 
9 | CN(C(=O)Cc1ccccc1)[C@@H]1CCCC[C@@H]1N1CCCC1 | 69.5% | 
10 | CN(/C(S)=N/c1ccc(Cl)c(Cl)c1)[C@@H]1CCCC[C@@H]1N1CCCC1 | 68.7% | 100%
11 | CN(C(=O)Cc1cccc2ccccc12)[C@H]1CCCC[C@H]1N1CCCC1 | 16.1% | 96.1%
12 | CN(C(=O)Cc1ccccc1Cl)[C@@H]1CCCC[C@@H]1N1CCCC1 | 51% | 104%
13 | CN(C(=O)Cc1cccc([N+](=O)[O-])c1)[C@@H]1CCCC[C@@H]1N1CCCC1 | 28% | 
14 | CN(C(=O)Nc1ccc(Cl)c(Cl)c1)[C@@H]1CCCC[C@@H]1N1CCCC1 | 43.9% | 
15 | CN(C(=O)Cc1cc(Cl)c(Cl)cc1N)[C@@H]1CCCC[C@@H]1N1CCCC1 | 8.18% | 95.2%
16 | CN(C(=O)Cc1ccc(Cl)cc1)[C@@H]1CCCC[C@@H]1N1CCCC1 | 39.6% | 
17 | CN(C(=O)Cc1ccsc1)[C@H]1CCCC[C@H]1N1CCCC1 | 73.9% | 
18 | CC(=O)N(C)[C@H]1CCCC[C@H]1N1CCCC1 | 96.5% | 112%
19 | CN(C(=O)Cc1cc(Cl)c(Cl)cc1[N+](=O)[O-])[C@@H]1CCCC[C@@H]1N1CCCC1 | 3.78% | 92.2%
